Measurements as given in patent publication US10954228B2 (NATIONAL INSTITUTES OF HEALTH, UNITED STATES DEPARTMENT OF …, priority 2016, dated 2021).

Test system: MiaPaCa2 cells
Assay: cell-based HT lactate assay by colorimetric/fluorometric detection (cellular inhibition of lactate production)
Conditions: read-out: Lactate activity, assay of Example 6

Cc1ccc(C#Cc2cc(-c3nn(-c4nc(C(N)=O)cs4)c(CC4CC4)c3Cc3ccc(S(N)(=O)=O)c(F)c3)ccc2F)s1
IC50: < 1 µM
